# Source: patent EP3131902B1, “COMPOUNDS AS MODULATORS OF ROR GAMMA” (Boehringer Ingelheim International GmbH, priority 2014, dated 2015)
# Protein sequences, listed by entry. Tags and fused reporters are not part of them. Residues count along the entry.
# UniProt P51449, 269-508 limits assumed: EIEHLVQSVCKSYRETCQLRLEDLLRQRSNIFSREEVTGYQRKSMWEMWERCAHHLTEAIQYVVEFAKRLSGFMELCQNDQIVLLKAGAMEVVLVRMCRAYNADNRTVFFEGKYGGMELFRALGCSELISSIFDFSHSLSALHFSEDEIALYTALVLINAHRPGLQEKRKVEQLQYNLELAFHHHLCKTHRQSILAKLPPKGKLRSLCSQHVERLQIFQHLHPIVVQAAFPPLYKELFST
# Molecular target: RORγ (Homo sapiens, UniProt P51449)
# Assay: Reporter Gene Assay (RGA): nuclear receptor transactivation assay, inhibition of RORγ transactivation of a luciferase reporter in transiently transfected HEK 293 cells
# Format: cell-based
# Settings: read-out: RGA IC50
smiles,measurement,value
CCS(=O)(=O)c1ccc(CNc2nc3cnc(-c4c(C)ncnc4C4CC4)nc3n(C(C)C)c2=O)cc1,IC50,162 nM
